According to patent publication US12195774B2, “Antidotes to factor XA inhibitors” (Alexion Pharmaceuticals, Inc., priority 2018, dated 2025):

System: procoagulant activity
Experiment: in vitro fXa activity assays (procoagulant activity)
Type: biochemical
Details: such as fXa activity assays

How did the procoagulant activity turn out when “fX-S395A: recombinant factor X active-site mutant” was run?
The procoagulant activity was “essentially has no procoagulant activity”.
